In patent US12599592B2, “Therapeutic small molecules for treatment of pulmonary hypertension” (UNIVERSITY OF PITTSBURGH—OF THE COMMONWEALTH SYSTEM OF …, priority 2020, dated 2026):

Assays:
[1] = test system: monocrotaline-exposed pulmonary arterial hypertension rats; assay: Monocrotaline (MCT) pulmonary arterial hypertension rat model; conditions: I-BET762 30 mg/kg i.p. daily, Days 12-26 post-MCT
[2] = test system: SU5416-hypoxic pulmonary arterial hypertension rats; assay: SU5416-hypoxia pulmonary arterial hypertension rat model; conditions: I-BET762 30 mg/kg i.p. daily, Days 21-35
chronically hypoxic mice = assay: Hypoxia-induced pulmonary hypertension mouse model; conditions: I-BET762 30 mg/kg daily oral gavage, chronic hypoxia

## CCNC(=O)C[C@@H]1N=C(c2ccc(Cl)cc2)c2cc(OC)ccc2-n2c(C)nnc21 [I-BET762, reference compound]
[1]
  Fulton index (RV/LV+S): reduced
  LGALS8 in pulmonary arterioles (immunofluorescence): decreased
  RVSP: reduced
  arteriolar muscularization: reduced
  cleaved caspase-3 (CC-3) in pulmonary arterioles: decreased
[2]
  Fulton index (RV/LV+S): reduced
Chronically hypoxic mice
  Fulton index: without significant effect
